# scFv variants of Ab-14 (light chain) against a SARS-CoV-2 spike peptide

Reference: Engelhart et al. 2022, doi:10.1038/s41597-022-01779-4. File: FLAb, binding data.

The target is the same throughout: PDVDLGDISGINAS, from the HR2 region of SARS-CoV-2 spike.

Parent: Ab-14, a human scFv built as VH, three GGGGS repeats, VL. Only the CDRs of the light chain vary.
VH: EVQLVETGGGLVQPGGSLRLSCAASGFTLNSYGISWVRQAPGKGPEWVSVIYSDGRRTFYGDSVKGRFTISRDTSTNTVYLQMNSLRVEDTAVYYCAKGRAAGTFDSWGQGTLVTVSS
VL: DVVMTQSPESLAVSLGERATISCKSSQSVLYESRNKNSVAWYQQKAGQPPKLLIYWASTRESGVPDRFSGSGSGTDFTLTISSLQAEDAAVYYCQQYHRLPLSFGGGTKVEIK

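The starting antibody came from a phage panning campaign against this peptide. In library AAYL50, one, two or three CDR residues were substituted; doubles and triples were drawn at random. In AlphaSeq, yeast of one mating type display the scFv and yeast of the other type display the target. Binding brings cells together so that they mate, and sequencing counts the barcode pairs among the diploids. Scores were corrected for input abundance and mapped to Kd with protein pairs of known affinity run in the same pool. Mating was done three times.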

The parent's light chain CDRs are KSSQSVLYESRNKNSVA, WASTRES, QQYHRLPLS; each variant's own CDRs replace them letter for letter.
The read-out is the apparent dissociation constant on a log10 scale (nM): the lower, the stronger.
A mean of the replicates is given; it leaves out those without a signal.
A pair that was not seen in any replicate is written "not detected"; this usually means weak binding, but a binder can also be missed.
As a blank, each scFv also met three strains without target: over library AAYL50, 18% of these pairings were detected, typically at 4.19 and seldom below 2.99.

CDR-L1	CDR-L2	CDR-L3	mean log10 Kd (nM)	seen in
SSSQSLLYESRQKNSVA	WASTRES	QQYHRLPLS	0.97	3 of 3
KSSQSVLYESRNKNSVA	DPWTRES	QQYHRLPLS	3.53	1 of 3
KSSQIVLYELRNKNSVA	WASTRES	QQYHRLPTS	not detected	0 of 3
KSNQSVLYESRNKNSVA	WAKTRES	QQYHRLGLS	1.74	3 of 3
KSSQSVLYESRNKNSVA	WASTRES	NQYHTLPLS	not detected	0 of 3
KSSQSVLYESRNKNSVA	WASTRMS	QQQHRLPLS	3.05	3 of 3
KSSQSVLYESRNKNLVA	WYSTRES	LQYHRLPLS	3.72	1 of 3
KSSQSVLTESRNKNSVA	YASTRES	QQYHQLPLS	1.05	3 of 3
KSSISVLYESRNKNSVA	WASTREP	QWYHRLPLS	3.64	2 of 3
KSSQSVLYHSRNKNSVA	WASTRES	QQYHRLPLQ	1.50	3 of 3
KSSQSVLYESRNKNSYA	WLSTRES	QQYHRLPHS	not detected	0 of 3
KSGQSVLYESRQKDSVA	WASTRES	QQYHRLPLS	2.22	3 of 3
KSSQSVLYETRNKNSVA	WASTRGS	QQYHRLPLS	1.85	3 of 3
KSTQSVLYESRNKNSVA	WASTREF	QQYHRLPFS	not detected	0 of 3
KSSQSKLYESRNKNSVA	FASTRES	QQYHRLPLI	1.24	3 of 3
ESSQSVLYESRNINSVA	WASTRES	QQYKRLPLS	3.09	1 of 3
KSEQSVLYESRNKMSEA	WASTRES	QQYHRLPLS	4.35	1 of 3
KSSQSVLYESRHKNSVA	WASTREM	QQVHRLPLS	not detected	0 of 3
KSSQSVLYESRNKCSYA	WASTRES	QQYHRLSLS	not detected	0 of 3
KSSQSVLYESRCKNSVA	WASTREM	QQYHRLVLS	1.62	3 of 3
KSLQSVLYESYNKNSVA	WASTRES	QQYLRLPLS	not detected	0 of 3
KSSNSVLYESRNKNSVA	WASTRES	QQYHWLPLS	1.25	3 of 3
KSSWSVLYESRNKNSVA	WASTKES	QQYHPLPLS	2.47	3 of 3

Continued, with the values leading:

mean log10 Kd (nM)	seen in	CDR-L1	CDR-L2	CDR-L3
3.44	3 of 3	KSSSSVLYESRNKNSVA	WASTRES	QQYHRLVLS
1.04	3 of 3	KASQSVLYGSRNKNSVA	WASYRES	QQYHRLPLS
5.53	2 of 3	KSSQSVLYRSRNKNSVA	WASTRES	QPYHRLPLS
1.00	3 of 3	KASQSVLAESRNKLSVA	WASTRES	QQYHRLPLS
not detected	0 of 3	KSSHSVLYESRNKNSVA	WAWTRES	YQYHRLPLS
not detected	0 of 3	KSSQVVLYERRNKNSVA	WASTRES	QQYDRLPLS
2.51	3 of 3	KSSQSVVYESRNKNSVA	WAFTRES	QQYHRLPLS
3.33	2 of 3	KSSQNVLYESRNKNSVA	WASTCES	QQYHRLPFS
1.03	3 of 3	KSSQSVLYESRNKNSVA	WADTRES	QQYHSLLLS
not detected	0 of 3	KSSQSVLYESRNYNSVA	WASTRES	QQYHRLPLL
1.82	3 of 3	KSKISVLYESRNKNSVA	WASTRER	QQYHRLPLS
not detected	0 of 3	KSSQHVLYESRNKNSQA	WASTRVS	QQYHRLPLS
3.77	2 of 3	KSSQSRLYEMRNKNSVA	WASTRES	QWYHRLPLS
3.37	3 of 3	KSSYSVLYLSRNKNSVA	WASTRES	QQYYRLPLS
not detected	0 of 3	KSSQSVLYLSRNKNSVA	WISTRES	QQYSRLPLS
2.56	3 of 3	KSSQSVLFESRNKNSVA	WASTRRS	QQYHTLPLS
1.28	3 of 3	KSFQSVLYESRNKNSVA	WASTREQ	QQYNRLPLS
3.77	1 of 3	KSSQSVLYESRNKNSVA	WASTRES	QQTHRKQLS
4.74	1 of 3	KKSQSVLDESRNKNSVA	WARTRES	QQYHRLPLS
not detected	0 of 3	KSSQSVYYESRNKNSVA	WLSTRES	QQYHRLWLS
1.35	3 of 3	KSSQSVLYKSINKNSVA	WASTRES	QQYHRLPLS
1.83	3 of 3	KSSQSVLYEYRNKNSVA	WASTRET	QQYHRLPWS
3.34	2 of 3	KSSQSVLYESRNKESVA	WKSTRES	QQYHRLPLW